Molecular target: human GPR40 (Homo sapiens, UniProt O14842)
Test: Calcium mobilization assay, agonistic activity on GPR40
Format: cell-based
Details: cells expressing human GPR40 (hGPR40-1321N1)

Sequences of proteins named here, by UniProt entry; tags and fusion partners are left off.
UniProt O14842, whole entry: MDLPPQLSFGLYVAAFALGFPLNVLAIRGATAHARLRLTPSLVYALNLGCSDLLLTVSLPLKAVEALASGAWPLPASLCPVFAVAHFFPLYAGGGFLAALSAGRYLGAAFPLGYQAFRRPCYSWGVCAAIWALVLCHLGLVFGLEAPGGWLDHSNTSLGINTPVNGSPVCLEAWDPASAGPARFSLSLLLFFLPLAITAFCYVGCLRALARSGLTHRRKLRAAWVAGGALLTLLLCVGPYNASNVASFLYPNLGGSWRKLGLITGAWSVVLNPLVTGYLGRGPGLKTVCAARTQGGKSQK

SMILES: Cc1cccc(C#Cc2ccc(CCC(=O)O)cc2)c1 [Example A7, 3-(4-(m-Tolylethynyl)phenyl)propanoic acid]
- GPR40 agonistic activity (pEC50): 6.97

Source: US8586607B2, “Compounds for the treatment of metabolic diseases” (Syddansk Universitet, priority 2008, dated 2013)
